The values below are quoted from earlier work in patent US20050196379A1, “Combination therapies with L-FMAU for the treatment of hepatitis B virus infection” (priority 2002, published 2005).

The series has as its system hepatitis B virus. To be noted: clinical studies, patients treated for hepatitis B.

As for “Interferon alpha-2b: Interferon alpha-2b, recombinant, Schering Corporation, for Injection”, the “patients with no evidence of the hepatitis B virus in their blood over time” value is listed as 45%.
